# Assay results published in US20220002435A1 (IMMUNOME, published 2022).
# T1: human EPN1 expressed by human cell lines (human, UniProt Q9Y6I3 1-576)
# T1 construct: Endogenous EPN1 of human tumour and normal cell lines, stained on live cells or on fixed and permeabilised cells, or immunoprecipitated; The cell lines were not engineered to express it; also called surface EPN1; huEPN1
# T1 sequence: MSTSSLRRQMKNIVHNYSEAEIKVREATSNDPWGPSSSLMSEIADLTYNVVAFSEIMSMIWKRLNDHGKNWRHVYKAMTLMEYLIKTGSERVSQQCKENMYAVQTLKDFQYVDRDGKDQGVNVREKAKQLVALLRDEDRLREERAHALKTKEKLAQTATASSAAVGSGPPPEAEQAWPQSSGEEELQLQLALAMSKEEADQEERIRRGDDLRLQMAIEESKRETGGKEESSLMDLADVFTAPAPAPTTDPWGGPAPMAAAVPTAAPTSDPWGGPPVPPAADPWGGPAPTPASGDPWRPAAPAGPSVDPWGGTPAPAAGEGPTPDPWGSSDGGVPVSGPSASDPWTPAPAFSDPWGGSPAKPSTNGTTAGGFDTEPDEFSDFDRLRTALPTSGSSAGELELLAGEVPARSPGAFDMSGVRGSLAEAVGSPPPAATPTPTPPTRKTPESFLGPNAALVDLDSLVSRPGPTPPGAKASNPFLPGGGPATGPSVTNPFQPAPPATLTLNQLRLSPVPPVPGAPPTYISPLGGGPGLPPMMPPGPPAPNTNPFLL
# T2: mouse EPN1 expressed by mouse cell lines (mouse, UniProt Q80VP1 1-575)
# T2 construct: whole, on cells; also called murine EPN1
# T2 sequence (looked up): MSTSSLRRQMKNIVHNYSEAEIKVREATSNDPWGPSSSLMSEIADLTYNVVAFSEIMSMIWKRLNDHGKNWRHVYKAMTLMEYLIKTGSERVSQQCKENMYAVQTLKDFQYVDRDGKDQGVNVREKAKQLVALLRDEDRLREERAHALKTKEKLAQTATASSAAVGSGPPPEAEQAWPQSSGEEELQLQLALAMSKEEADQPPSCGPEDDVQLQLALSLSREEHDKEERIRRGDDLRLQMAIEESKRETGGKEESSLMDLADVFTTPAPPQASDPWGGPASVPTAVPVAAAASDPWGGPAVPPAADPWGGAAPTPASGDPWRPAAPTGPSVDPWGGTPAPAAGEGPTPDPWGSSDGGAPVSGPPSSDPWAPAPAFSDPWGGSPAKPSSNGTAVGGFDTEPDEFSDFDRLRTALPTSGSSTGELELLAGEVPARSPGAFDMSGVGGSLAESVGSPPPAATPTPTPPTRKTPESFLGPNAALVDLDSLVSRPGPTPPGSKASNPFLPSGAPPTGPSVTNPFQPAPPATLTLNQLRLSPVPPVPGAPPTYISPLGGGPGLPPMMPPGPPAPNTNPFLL
# T3: recombinant EPN1 (Origene, cat #TP307099) (human, UniProt Q9Y6I3 1-576)
# T3 construct: Bought protein; also called Epsin-1; Epsin 1
# T3 sequence: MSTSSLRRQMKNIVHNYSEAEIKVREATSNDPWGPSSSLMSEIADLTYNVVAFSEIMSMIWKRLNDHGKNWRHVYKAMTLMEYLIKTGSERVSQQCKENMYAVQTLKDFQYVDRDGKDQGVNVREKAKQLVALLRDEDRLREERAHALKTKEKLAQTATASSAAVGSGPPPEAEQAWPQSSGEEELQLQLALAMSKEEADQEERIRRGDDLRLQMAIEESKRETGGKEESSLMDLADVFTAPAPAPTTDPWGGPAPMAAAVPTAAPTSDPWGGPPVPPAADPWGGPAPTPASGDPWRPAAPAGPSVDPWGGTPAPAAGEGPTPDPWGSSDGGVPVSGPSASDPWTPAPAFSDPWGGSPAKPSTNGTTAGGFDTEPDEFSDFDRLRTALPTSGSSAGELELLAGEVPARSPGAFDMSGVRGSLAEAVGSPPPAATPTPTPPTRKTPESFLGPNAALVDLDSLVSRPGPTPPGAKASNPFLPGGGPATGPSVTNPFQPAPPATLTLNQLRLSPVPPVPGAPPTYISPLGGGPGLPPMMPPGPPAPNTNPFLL
# What was measured:
# [1] = molecular target: T1, human EPN1 expressed by human cell lines; test: flow cytometry on intact Huh7 cells, fluorophore-labelled anti-human secondary
# Excerpt: (§1) Binding of IMM20059 to intact cells was detected with fluorophore-labelled anti-human secondary Abs.
# (§2) Full-length IgG1 antibody, containing the PR045-2H11 Ab VH and VL domains, was expressed recombinantly by transient transfection into mammalian cell lines, such as Chinese Hampster Ovary (CHO) and human embryonic kidney (HEK), or derivatives of those cell lines, using standard conditions. The recombinant antibody, referred to as IMM20059, was purified from conditioned media by affinity chromatography, buffer exchanged into PBS and analyzed for activity by flow cytometry. […] IMM20059 binds, to varying degrees, to the surfaces of cells included in a panel of human cancer cells, immortalized normal human cell lines, and mouse tumor lines (Table 1).
# [2] = molecular target: T2, mouse EPN1 expressed by mouse cell lines; test: flow cytometry, B16F0 cells (mouse tumor line)
# [3] = molecular target: T1, human EPN1 expressed by human cell lines; test: flow cytometry, DMS114 cells (human tumor line)
# [4] = molecular target: T1, human EPN1 expressed by human cell lines; test: flow cytometry, MFE296 cells (human tumor line)
# [5] = molecular target: T3, recombinant EPN1 (Origene, cat …); test: SPR, IMM20059 captured at 450 RU on CM5/Protein A, EPN1 in solution, 1:1 model, 25° C., 1st test; 1st test
# Method: The strength of the interaction with recombinant EPN1 was further defined by surface plasmon resonance on a BIAcore2000 at 25° C. in standard running buffer (10 mM HEPES, 150 mM NaCl, 0.005% Tween-20, 0.2 mg/mL BSA, pH 7.4). Protein A surfaces were regenerated between binding cycles with 150 mM phosphoric acid. IMM20059, or an isotype control, were captured on CM5/Protein A sensor surface to generate binding and control surfaces; IMM20059 was captured at approximately 200 and 450 RU, the isotype control was captured to a density of approximately 600 RU. Binding of recombinant EPN1 to each of the three surfaces was tested, in triplicate, using a three-fold dilution series starting with 33.3 nM as the highest concentration. […] Double-subtracted data obtained from the binding measured against the 450 RU IMM20059 surface was fit to a 1:1 binding model.
# [6] = molecular target: T1, human EPN1 expressed by human cell lines; test: flow cytometry, OE19 cells (human tumor line)
# [7] = molecular target: T1, human EPN1 expressed by human cell lines; test: flow cytometry, HCT15 cells (human tumor line)
# [8] = molecular target: T1, human EPN1 expressed by human cell lines; test: flow cytometry, SW480 cells (human tumor line)
# [9] = molecular target: T1, human EPN1 expressed by human cell lines; test: flow cytometry on intact cells (upper end; corresponds to Huh7)
# Excerpt: as §1, §2
binder,measurement,setting,value
"IMM20059 (antibody, human IgG1, kappa, V domains shown) VH: EVQLVESGGGLVQPGGSLRLSCAASGFTFSIHSLNWVRQAPGKGLEWVSYISSNSTTIYYADSVKGRFTISRDNAKDSLYLQMNSLRDEDTAVYYCARDYYCTGGTCFFLPDLWGRGALVTVSS VL: EIVLTQSPATLSLSPGERATLSCRASQNISNFLAWYQHKPGQAPRLLIYDASIRATGIPARFSGSGSGTDFSLTISSLEPEDFAVYFCQQRYNWLTFGGGTKVEIKR",EC50,[1],1.33 µg/mL
same,MFI (fold mean fluorescence index above isotype control),[2],5 fold
same,MFI (fold mean fluorescence index above isotype control),[3],12 fold
same,MFI (fold mean fluorescence index above isotype control),[4],17 fold
same,Kd,[5],0.96 nM
same,koff,[5],0.000705 s⁻¹
same,kon,[5],730000 M⁻¹ s⁻¹
same,MFI (fold mean fluorescence index above isotype control),[6],5 fold
same,MFI (fold mean fluorescence index above isotype control),[7],2 fold
same,MFI (fold mean fluorescence index above isotype control),[8],13 fold
same,EC50,[9],6 to 9 nM
